The values that follow are results of earlier work, collected in patent US20190376142A1, “METHOD TO DISTINGUISH TUMOR SUPRESSIVE FOXO ACTIVITY FROM OXIDATIVE STRESS” (KONINKLIJKE PHILIPS N.V., priority 2016, published 2019).

The subject of the series is HER2-positive breast cancer patients. The following applies: HER2-positive breast cancer patients treated with Trastuzumab; cited from earlier work.

Regarding Trastuzumab, the initial response rate was 26%.
